Earlier results, collected in patent publication US8450097B2, “Protein-proteophore complexes” (Ascendis Pharma GmbH, priority 2003, dated 2013).

Conditions: rats; for half-life t½ in circulation: PEGylated interferons

For interferon alfa-2a, the “time within which cleared” value (unconjugated protein) is given as no more than 2.5 h.
For “linear 5 kDa PEG monoconjugate: PEGylated interferon alfa-2a, linear 5 kDa PEG monoconjugate”, the “half-life t½ in circulation” value is given as 3.4 h.
For “dipegylated with 2×20 kDa PEG: PEGylated interferon alfa-2a, dipegylated with 2×20 kDa PEG”, the “half-life t½ in circulation” value is given as 23 h.
